Data reported in US12194158B2, “Oromucosal nanofiber carriers for therapeutic treatment” (Instar Technologies A.S., priority 2016, dated 2025).

Assays:
[1] = plasma protein; cited from earlier work
[2] = in water at 25° C.; cited from earlier work

Substance	average half-life [1]	release from the resulting carriers (albumin containing nanofibres)	sublingual permeation level (albumin containing nanofibres)	time after loading donor samples onto mucosa at which permeation was detected (ca 4.8 mg total albumin in donor)	isoelectric point (pI) [2]	transmucosal in vitro permeation through sublingual porcine membrane (ca 4.8 mg total albumin in donor, FIG. 6)
bovine serum albumin [BSA]	19 days	release easily	at a high level	20 min	~4.7	–
fluorescent isothiocyanate-BSA [FITC-BSA, reference compound]	–	–	–	–	–	well measurable
